The record followed here is ChEMBL document CHEMBL5726786, “Substituted prolines/piperidines as orexin receptor antagonists” (2018).

Protein sequences, listed by entry. Tags and fused reporters are not part of them.
UniProt O43613, whole entry: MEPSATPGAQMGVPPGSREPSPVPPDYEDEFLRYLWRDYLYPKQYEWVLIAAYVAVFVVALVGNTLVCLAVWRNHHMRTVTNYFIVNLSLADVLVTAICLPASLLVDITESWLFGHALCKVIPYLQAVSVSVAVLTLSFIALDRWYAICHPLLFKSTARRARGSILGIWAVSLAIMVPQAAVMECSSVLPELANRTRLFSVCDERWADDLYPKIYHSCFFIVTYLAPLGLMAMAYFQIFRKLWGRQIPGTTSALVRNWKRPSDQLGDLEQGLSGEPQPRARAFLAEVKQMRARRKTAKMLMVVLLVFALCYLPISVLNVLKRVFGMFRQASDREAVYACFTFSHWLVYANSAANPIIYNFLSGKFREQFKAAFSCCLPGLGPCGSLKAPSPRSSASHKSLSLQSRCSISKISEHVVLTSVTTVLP

The structures appear in SMILES notation.

The target in this assay is Orexin/Hypocretin receptor type 1 (Homo sapiens, UniProt O43613).

As usually defined, the IC50 is the point on the concentration scale where inhibition reaches its midpoint. High values mean a need for much substance, low ones inhibition by little substance. In turn, `Cc1ccc(-c2ccc(C)nc2)c(C(=O)N2CCC[C@@H](C)[C@H]2CNc2nc3cc(Cl)ccc3o2)c1` came in with an IC50 of 100 nM.
